System: monoclonal antibody 245J15
Assay: Competitive ELISA for total TSNAs using monoclonal antibody 245J15
Assay type: binding, mice
Conditions: NNK amount for 50% inhibition divided by test compound amount, x100
Description: Microtiter plates (Nunc, Maxisorp) were coated by adding 100 μl per well of goat anti mouse IgG Fc specific (Jackson Immunoresearch, West Grove, Pa.) at 2.5 micrograms per milliliter (μg/ml) in phosphate buffered saline (Sigma Chemical Co.) and allowing the solution to sit overnight. The next day, contents were discarded and unreacted sites on the plastic wells were blocked with 300 μl per well of PBT (1% Bovine Serum Albumen (Sigma Chemical Co.), 0.05% Tween 20 (Sigma Chemical Co.) in PBS) for one hour. Contents were again discarded and 100 μl was added per well of a 1/10,000 dilution of hybridoma culture supernatant of monoclonal antibody 245B5. Wells were then incubated one hour at room temperature. Contents of the wells were again discarded and wells washed three times with PBS with 0.05% Tween (PT). Aliquots containing 50 μl of test compounds diluted in PBT were added to the wells in duplicate, followed in less than five minutes by 50 μl of NNK conjugated to horseradish peroxidase (5 μg of horseradish peroxidase/ml). […] Color was read at 650 nm after fifteen minutes in a microplate reader (SpectraMax Plus, Molecular Devices, Sunnyvale, Calif.). […]
The affinity of monoclonal antibodies 245B5 and 245J15 to the N-nitroso group on compounds was evaluated using the immunoassay of Example 3 and the immunoassay of Example 4. […]

In the case of `O=C(O)C1CCCNC1` (stereo not shown) [Nipecotic Acid], the “% Crossreactivity” value is reported as 0%.

Source: US20050043515A1, “Tobacco-specific nitrosamine detection assays and reagents” (priority 2003, published 2005)
